Here are results for two molecules from article PMC5499624 (Biomolecules & Therapeutics, 2017).

Structures can show the parent of a compound that is named as a salt.

Assay [1] concerns [^3H]imperatorin uptake by TR-BBB cells. Put plainly: Inhibition of [^3H]imperatorin uptake by TR-BBB cells by selected compounds. The class given is in vitro ADME, rat. To be noted: compound 1 mM (L-Carnitine: concentration cell empty), 37°C, 5 min.
The test system of assay [2] is [^3H]imperatorin brain uptake. The assay can be described thus: Brain uptake index. The class given is in vivo, rat. To be noted: inhibitor 10 mM, 15 s after injection.

Turning to `C[C@]12CC[C@@H]3c4ccc(OS(=O)(=O)O)cc4CC[C@H]3[C@@H]1CCC2=O` [E1S, estrone-3-sulfate], in assay [1], the “Relative Uptake (% of Control) of [^3H]imperatorin” value is 103 ± 6 % of Control.
For the molecule `COc1ccc(CN(CCN(C)C)c2ccccn2)cc1` [Pyrilamine, pyrilamine maleate salt], the “BUI of [^3H]imperatorin in presence of inhibitor” value in assay [2] came to 29.1 ± 1.7 %.
